FGF22 binding: FGF22 (human) thermal shift binding; Q9HCT0; 340,000 compounds, 1.5% hits; recombinant FGF22 thermal shift, SYPRO orange fluorescence; percent of sucrose octasulfate shift, DMSO zero; activity (Tm shift, normalised), % at 9.99 µM;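 active = mean Tm shift, scaled 0 neutral to 100 positive control, at about 1.3% or above, every replicate too, limit read from the data; inconclusive = no clear call, values can overlap the other calls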
S100A4 inh HTS: inhibitors of human S100A4 binding to myosin IIA peptide; inhibition, % at 10.7 µM; AID 652163; S100A4/TAMRA-MyoIIA peptide fluorescence polarization; P26447; 360,000 compounds, 0.14% hits;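 active = mean inhibition of at least 70% across replicates, with every replicate also reaching that level; inconclusive = mean inhibition reaches 70% but some replicates fall short; inactive = mean inhibition below 70%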
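Assay system: human S100A4 monomer with TAMRA-labelled myosin IIA peptide / Buffer or medium: Calcium-containing HEPES buffer, pH 7.2 / Reagent: TAMRA-labelled myosin IIA heavy-chain peptide probe, 5 nM / Compound: one dose per compound / Timing: polarization read 5 min after assay mix addition, stable 5–60 min / Benchmarks: neutral control DMSO, positive control TFP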
SIRT5 inh: inhibitors of human sirtuin-5 desuccinylase; AID 652115; inhibition, % at 15 µM; Purified SirT5, succinyl-peptide AMC, trypsin-coupled fluorescence; Q9NXA8; 330,000 compounds, 1.1% hits; in the data active = inhibition above about 15%; inconclusive = no clear call, values can overlap the other calls
PDI inh: inhibitors of human protein disulfide isomerase; P07237; PDI insulin aggregation turbidity, A650, 90 min; inhibition, % at 10 µM; 350,000 compounds, 0.052% hits; AID 588391;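 active = mean inhibition across replicates of 30% or more, whatever share of single replicates reach that level; inconclusive = mean inhibition below 30% while every single replicate reaches 30%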
ERp5 inh: ERp5 (human) disulfide isomerase inhibition. 350,000 compounds, 0.05% hits. ERp5 insulin aggregation, absorbance 650 nm, 90 min. Q15084. inhibition, % at 9.99 µM;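 active = mean replicate inhibition above about 25%, with every replicate also reaching it, limit read from the data, passing the limit was not always enough; inconclusive = only one of those two criteria met; inactive = neither criterion met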
Yeast UUG start: alters start codon recognition fidelity in yeast. S. cerevisiae UUG-firefly luciferase reporter, luminescence/redox ratio. activity score, % at 18.7 µM. 0.13% of 350,000 active. AID 602363;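 active = replicate mean at a twofold rise or more, about +100% in these data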;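 also: firefly luciferase made from a UUG start codon reports start codon fidelity; reporter light over untreated wells divided by growth signal over untreated wells; some hits fall short of that in this replicate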
An asterisk follows results filed as active. Shown are actives, neighbours in structure and some others; about 2.2% of the full set was active somewhere.

`O=C(CN1CCCC1)N1c2ccccc2C=Cc2ccccc21` gave FGF22 binding 43*, S100A4 inh HTS 1, SIRT5 inh -9, PDI inh 11 and ERp5 inh -3.
Screening CO[C@H]1CN(C)C(=O)c2cc(NC(=O)Nc3ccccc3)ccc2OC[C@H](C)N(C(=O)CC2CC2)C[C@@H]1C returned FGF22 binding 0, S100A4 inh HTS -14, SIRT5 inh 3 and ERp5 inh -3.
For Fc1ccc(-c2nc3ccc(Cl)cn3c2Cc2cccc(F)c2)cc1 the results were FGF22 binding 0, S100A4 inh HTS 0, SIRT5 inh 19*, ERp5 inh -22 and Yeast UUG start -13.
Screening CC(C)(C)Cc1c(-c2ccc(Cl)cc2)nc2ccc(Cl)cn12 returned FGF22 binding 1, S100A4 inh HTS 6, SIRT5 inh -2, PDI inh 6, ERp5 inh 3 and Yeast UUG start 4.
`Cc1ccc(-c2nc3c(Cl)cc(C(F)(F)F)cn3c2Cc2cccc(F)c2)cc1` gave FGF22 binding 0, S100A4 inh HTS -6, SIRT5 inh 22*, ERp5 inh -1 and Yeast UUG start -18.
`CN(C)Cc1c(-c2ccc(Cl)cc2)nc2ccc(Cl)cn12` gave FGF22 binding 43*, S100A4 inh HTS -2, SIRT5 inh 1, PDI inh 19 and ERp5 inh 2.
For Cc1ccc(-c2nc3c(Cl)cc(C(F)(F)F)cn3c2Cc2ccccc2)cc1 the results were FGF22 binding 0, S100A4 inh HTS 2, SIRT5 inh 15*, ERp5 inh 2 and Yeast UUG start -7.
For CCCNC(=O)C[C@H]1CC[C@@H]2[C@H](COc3ccc(NC(=O)c4cccc(Cl)c4)cc3C(=O)N2C)O1 the results were FGF22 binding 0, S100A4 inh HTS 6, SIRT5 inh -2, ERp5 inh -3 and Yeast UUG start 3.
Screening CO[C@H]1CN(C)C(=O)c2cc(NS(=O)(=O)c3ccc(Cl)cc3)ccc2OC[C@H](C)NC[C@H]1C returned FGF22 binding 0, S100A4 inh HTS -7, SIRT5 inh 4, ERp5 inh -3 and Yeast UUG start -15.
COc1ccccc1-c1cccc(-c2nc(C(=O)Nc3nccs3)cc3c2[C@@H](CCO)N(C(=O)CC2CC2)C3)c1 was read as FGF22 binding 0, S100A4 inh HTS inconclusive, SIRT5 inh 16* and ERp5 inh 1.
Cc1nn(CC(=O)NCCCN2CCC(Cc3ccccc3)CC2)c(=O)c2cc(-c3ccccc3)nn12 was read as FGF22 binding 0, S100A4 inh HTS -4, SIRT5 inh 25*, PDI inh 3, ERp5 inh -5 and Yeast UUG start -7.
For CCCNC(=O)[C@@]1(c2ccc([N+](=O)[O-])cc2)CC(=O)N(CC23CC4CC(CC(C4)C2)C3)[C@@H]1c1ccc(CO)cc1I the results were FGF22 binding 0, S100A4 inh HTS 1, SIRT5 inh 1, ERp5 inh -4 and Yeast UUG start -7.
COc1ccc(COCC(O)CN2CCC(C(N)=O)CC2)cc1OC (stereo not drawn) was read as FGF22 binding 44*, S100A4 inh HTS -7, SIRT5 inh 0, PDI inh -1 and ERp5 inh 2.
Screening COc1ccc(COCC(O)CN2CCCCC2)cc1OC (stereo not drawn) returned FGF22 binding 0, S100A4 inh HTS -7, SIRT5 inh -3, PDI inh 3, ERp5 inh -2 and Yeast UUG start -2.
`C[C@@H]1CN([C@H](C)CO)C(=O)c2cc(-c3ccc(F)cc3)cnc2O[C@H]1CN(C)Cc1cncnc1` gave FGF22 binding 0, S100A4 inh HTS 107*, SIRT5 inh 3, ERp5 inh -3 and Yeast UUG start 26.

Two compounds picked at random from the list so far:
COc1ccc(COCC(O)CN2CCC(C(N)=O)CC2)cc1OC (stereo not drawn) was read as FGF22 binding 44*, S100A4 inh HTS -7, SIRT5 inh 0, PDI inh -1 and ERp5 inh 2.
For Cc1ccc(-c2nc3c(Cl)cc(C(F)(F)F)cn3c2Cc2ccccc2)cc1 the results were FGF22 binding 0, S100A4 inh HTS 2, SIRT5 inh 15*, ERp5 inh 2 and Yeast UUG start -7.

3 entries already listed, arranged by number of heavy atoms, low to high:
`Cc1ccc(-c2nc3c(Cl)cc(C(F)(F)F)cn3c2Cc2cccc(F)c2)cc1` gave FGF22 binding 0, S100A4 inh HTS -6, SIRT5 inh 22*, ERp5 inh -1 and Yeast UUG start -18.
Screening CO[C@H]1CN(C)C(=O)c2cc(NS(=O)(=O)c3ccc(Cl)cc3)ccc2OC[C@H](C)NC[C@H]1C returned FGF22 binding 0, S100A4 inh HTS -7, SIRT5 inh 4, ERp5 inh -3 and Yeast UUG start -15.
COc1ccccc1-c1cccc(-c2nc(C(=O)Nc3nccs3)cc3c2[C@@H](CCO)N(C(=O)CC2CC2)C3)c1 was read as FGF22 binding 0, S100A4 inh HTS inconclusive, SIRT5 inh 16* and ERp5 inh 1.

Other structures
`COc1ccc(-c2cnc3c(c2)C(=O)N([C@@H](C)CO)C[C@H](C)[C@@H](CN(C)Cc2ccc(C(=O)O)cc2)O3)cc1` gave FGF22 binding 0, S100A4 inh HTS -7, SIRT5 inh 21*, ERp5 inh 4 and Yeast UUG start 1.
For C[C@@H]1CN([C@H](C)CO)C(=O)c2cc(-c3cccc(C#N)c3)cnc2O[C@H]1CN(C)Cc1cncnc1 the results were FGF22 binding 0, S100A4 inh HTS 2, SIRT5 inh -7, ERp5 inh 75* and Yeast UUG start -7.
`COc1ccc(-c2cnc3c(c2)C(=O)N([C@H](C)CO)C[C@H](C)[C@H](CN(C)Cc2ccc(C(=O)O)cc2)O3)cc1` gave FGF22 binding 0, S100A4 inh HTS -19, SIRT5 inh -3, ERp5 inh -2 and Yeast UUG start -5.
C[C@@H]1CN([C@@H](C)CO)C(=O)c2cc(-c3ccc(F)cc3)cnc2O[C@@H]1CN(C)Cc1cncnc1 was read as FGF22 binding 0, S100A4 inh HTS 6, SIRT5 inh 1, ERp5 inh -3 and Yeast UUG start -2.
C[C@@H]1CN([C@H](C)CO)C(=O)c2cc(-c3cccc(C#N)c3)cnc2O[C@@H]1CN(C)Cc1cncnc1 was read as FGF22 binding 0, S100A4 inh HTS 14, SIRT5 inh -1, ERp5 inh 3 and Yeast UUG start 6.
Screening COc1cccc(-c2ccc([C@H]3[C@@H](CO)N4C(=O)CN(C(=O)CN5CCOCC5)C[C@@H]34)cc2)c1 returned S100A4 inh HTS 6, SIRT5 inh 3 and ERp5 inh 0.
CN(C)CCCNC(=O)[C@@H]1[C@@H](CO)[C@@H]2Cn3c(ccc(-c4ccncc4)c3=O)[C@H]1N2C(=O)C1CC1 was read as FGF22 binding 0, S100A4 inh HTS 2, SIRT5 inh -58 and ERp5 inh 2.
For COCCNC(=O)C[C@@H]1C[C@H]2c3cc(NC(=O)NC4CCCC4)ccc3O[C@H]2[C@@H](CO)O1 the results were FGF22 binding 0, S100A4 inh HTS 5, SIRT5 inh -9, ERp5 inh 82* and Yeast UUG start -1.
Screening O=C(C[C@@H]1C[C@@H]2c3cc(NC(=O)NC4CCCCC4)ccc3O[C@@H]2[C@H](CO)O1)NCCc1ccccc1 returned S100A4 inh HTS 1, SIRT5 inh 26* and ERp5 inh 1.
For O=C(C[C@@H]1C[C@H]2c3cc(NC(=O)NC4CCCCC4)ccc3O[C@H]2[C@@H](CO)O1)NCCc1ccccc1 the results were FGF22 binding 0, S100A4 inh HTS -6, SIRT5 inh -11 and ERp5 inh 5.
For CCCNC(=O)C[C@@H]1C[C@H]2c3cc(NC(=O)CC4CC4)ccc3O[C@H]2[C@H](CO)O1 the results were FGF22 binding 0, S100A4 inh HTS -20, SIRT5 inh 0, ERp5 inh 62* and Yeast UUG start 139*.

Screening results as filed in PubChem BioAssay.
